# Laboratory results published in patent US7205002B2, “Method of making, and the use of cytotoxic agents containing elemental selenium” (MCW Research Foundation, Inc., priority 2002, dated 2007).
# Tested on: L1210 leukemia cells
# Experiment: Cytotoxicity of chemically prepared Se(0)-protein conjugates with selenium dioxide control
# Conditions: equimolar (up to 30 μM) concentrations
substance,measurement,value
selenium dioxide,Cytotoxicity,not cytotoxic
